The values below come from paper PMC7392148 (Bioorganic & medicinal chemistry, 2020).

Protein sequences, listed by entry. Tags and fused reporters are not part of them.
UniProt P30518, whole entry: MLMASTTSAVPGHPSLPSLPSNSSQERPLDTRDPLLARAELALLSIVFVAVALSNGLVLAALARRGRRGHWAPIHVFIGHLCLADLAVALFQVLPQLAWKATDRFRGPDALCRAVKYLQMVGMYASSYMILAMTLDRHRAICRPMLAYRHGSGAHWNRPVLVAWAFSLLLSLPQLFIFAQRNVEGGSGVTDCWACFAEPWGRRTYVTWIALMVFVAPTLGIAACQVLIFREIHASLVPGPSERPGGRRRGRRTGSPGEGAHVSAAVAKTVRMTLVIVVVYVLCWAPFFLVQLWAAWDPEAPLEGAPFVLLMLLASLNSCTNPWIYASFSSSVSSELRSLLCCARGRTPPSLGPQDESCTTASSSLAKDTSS

The target of one assay is AVPR2 (Homo sapiens, UniProt P30518). Briefly: PathHunter β-arrestin antagonist assay. The class given is cell-based. The note with it: dose-response, reference AVPR2 antagonist.
The next assay has as its system panel of 168 GPCRs. Kind of assay: PathHunter β-arrestin cell-based assays, antagonist primary screen. The note with it: from the 168 GPCRs tested.

With `Cc1ccccc1C(=O)Nc1ccc(C(=O)N2CCCC(O)c3cc(Cl)ccc32)c(C)c1` (centres unmarked) [tolvaptan], on AVPR2, the IC50 (commonly the point on the concentration scale where inhibition reaches its midpoint) was determined as 7.34 pM.
In turn, `COC(=O)[C@@H]1[C@H]2C[C@H]3c4[nH]c5ccccc5c4CCN3C[C@@H]2CC[C@@H]1O` [yohimbine, reference compound] registered a hit rate in the assay on panel of 168 GPCRs of 4.2%.
